In ChEMBL document CHEMBL1149629, “Synthesis and biological activities of isogranulatimide analogues” (Bioorg Med Chem, 2007) one finds inhibition data, which are given here for one compound.

The target in the experiment is T1, Serine/threonine-protein kinase Chk1 (Homo sapiens) (UniProt O14757).
T1 sequence (whole entry): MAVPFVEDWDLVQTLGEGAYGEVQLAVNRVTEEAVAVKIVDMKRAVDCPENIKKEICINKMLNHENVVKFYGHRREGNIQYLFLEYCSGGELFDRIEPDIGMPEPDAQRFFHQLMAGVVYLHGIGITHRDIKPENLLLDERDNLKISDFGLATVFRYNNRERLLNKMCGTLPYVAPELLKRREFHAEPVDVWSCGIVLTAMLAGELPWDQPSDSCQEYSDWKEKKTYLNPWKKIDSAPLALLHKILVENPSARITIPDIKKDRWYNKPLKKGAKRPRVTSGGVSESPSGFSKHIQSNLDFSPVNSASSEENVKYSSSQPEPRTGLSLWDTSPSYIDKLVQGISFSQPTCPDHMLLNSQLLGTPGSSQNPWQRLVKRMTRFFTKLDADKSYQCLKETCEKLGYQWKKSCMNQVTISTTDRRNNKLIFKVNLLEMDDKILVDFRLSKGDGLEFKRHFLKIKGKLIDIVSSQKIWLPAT
As to the kind of experiment: Inhibition of human Chk1 at 10 uM. The essentials: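 Chk1 from a commercial source or purified as GST–Chk1 from baculovirus-infected Sf9 cells. Assay based on a published method. Percent inhibition determined at 10 µM; IC50 determined for selected compounds.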

The compound `O=C1NC(=O)c2c1c1c3ccccc3[nH]c1n1cncc21` [ISOGRANULATIMIDE] registered an inhibition of 89.7%.

A word on the inhibition: it is the drop in the measured response relative to a control, in per cent. The low end stands for a response near the control, the high end for a response far below the control.
